Earlier results on one compound are cited in patent US20070021421A1 (priority 2005, published 2007).

This series deals with ALS patients. The conditions noted are these: ALS therapy; cited from earlier work.

As for `Nc1nc2ccc(OC(F)(F)F)cc2s1` [Riluzole], the prolongation of survival was 2-3 month.
